From PubChem BioAssay AID1224817 (Yan Lab, Georgia Cancer Center, Augusta University, 2016)
Only a part is listed here, and it is no random draw. Some tests of the compounds listed are not included; inactive here does not mean inactive elsewhere. Activity calls are given as the source filed them.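 The calls were made as follows: active = log2 luciferase ratio at or below -0.5849, meaning signal at two thirds of solvent-only control or lower; inactive = the rest.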

Experiment: eIF4E expression suppression, luciferase knock-in reporter – cell-based, HT1080, primary screen (AID 1224817);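 also: luciferase reports endogenous eIF4E expression since it is co-expressed from the native EIF4E locus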
Details: HT1080 EIF4E-luc2 knock-in reporter, 16 h, at 2.5 µM, stronger effect = lower value

Question: With `C=C(C)C#CC(O)(C(=O)OC1CCN(C)CC1)c1ccccc1` (configuration not stated) as the molecule, how does the log2 luciferase activity ratio read?
Answer: Its log2 luciferase activity ratio is inactive: -0.166.

Question: With `CN1CCCC(OC(=O)C(O)(c2ccccc2)C2CCCC2)C1` (configuration not stated) as the molecule, how does the log2 luciferase activity ratio read?
Answer: Its log2 luciferase activity ratio is inactive: -0.121.
